Our source for the IC50 values is ChEMBL document CHEMBL6114976, “Structure-based design, synthesis and biological evaluation of a novel d-amino acid-containing peptide inhibitor by blocking the RAD51-BRCA2 interaction for the treatment of kidney cancer” (Eur J Med Chem, 2025).

This experiment deals with 786-0. The experiment in a line: cells. The note with it: Homo sapiens, 786-0, 72 h.

The term IC50 denotes the midpoint of a concentration-inhibition curve. A lower IC50 goes with inhibition by little substance. In turn, `COc1ccc([C@H](C)NC(=O)[C@@H]2C[C@@H](O)CN2C(=O)CNC(=O)c2ccc3cc(F)ccc3n2)c(Cl)c1` had an IC50 of 3.68 µM.
